This is an account of results in ChEMBL document CHEMBL4000163, “Pyrazole derived ultra-short antimicrobial peptidomimetics with potent anti-biofilm activity” (Eur J Med Chem, 2017).

Type in all cases: functional
Holding throughout (details): read-out: MIC100

One test relates to Escherichia coli. Kind of test: Antimicrobial activity against Escherichia coli KCTC 1682 incubated for 18 to 20 hrs by broth microdilution assay. A digest of the protocol:
(§1)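 Broth microdilution in 1% peptone. Inoculum was 2 × 10⁶ CFU/mL mixed 1:1 with serial 2-fold peptide dilutions and incubated 18–20 h at 37 °C. Growth was read as absorbance at 600 nm; MIC is the lowest peptide concentration giving 100% growth inhibition.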

Test [1] has as its system Pseudomonas aeruginosa. Nature of the test: Antimicrobial activity against Pseudomonas aeruginosa KCTC 1637 incubated for 18 to 20 hrs by broth microdilution assay. Summed up:
as §1
For orientation: Broth dilution looks for growth in wells or tubes with falling amounts of substance.

The subject of test [2] is Staphylococcus epidermidis. Kind of test: Antimicrobial activity against Staphylococcus epidermidis KCTC 1917 incubated for 18 to 20 hrs by broth microdilution assay. Summed up: as §1
For test [3], the system named is Staphylococcus aureus. Nature of the test: Antimicrobial activity against Staphylococcus aureus KCTC 1621 incubated for 18 to 20 hrs by broth microdilution assay. A digest of the protocol: as §1
For test [4], the system named is Staphylococcus aureus. Nature of the test: Antibacterial activity against methicillin resistant Staphylococcus aureus CCARM 3089 after 18 to 20 hrs by broth microdilution assay. A digest of the protocol:
(§2)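 Broth microdilution in 1% peptone: bacteria at 2 × 10⁶ CFU/mL mixed 1:1 with serial 2-fold peptide dilutions, 18-20 h at 37 °C; growth read as absorbance at 600 nm. MIC taken as lowest concentration giving 100% growth inhibition.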

Test [5] concerns Staphylococcus aureus. Kind of test: Antibacterial activity against methicillin resistant Staphylococcus aureus CCARM 3090 after 18 to 20 hrs by broth microdilution assay. Summed up:
as §2

In test [6] the test system is Staphylococcus aureus. Nature of the test: Antibacterial activity against methicillin resistant Staphylococcus aureus CCARM 3095 after 18 to 20 hrs by broth microdilution assay. A digest of the protocol: as §2
The test system of test [7] is Pseudomonas aeruginosa. Kind of test: Antibacterial activity against multidrug-resistant Pseudomonas aeruginosa CCARM 2109 after 18 to 20 hrs by broth microdilution assay. Summed up: as §2
Test [8] deals with Pseudomonas aeruginosa. Nature of the test: Antibacterial activity against multidrug-resistant Pseudomonas aeruginosa CCARM 2095 after 18 to 20 hrs by broth microdilution assay. Summed up:
as §2

≈ marks a conversion by molar mass, not a printed value.

Take `CC[C@H](C)[C@H](NC(=O)CN)C(=O)NCC(=O)N[C@@H](C)C(=O)N[C@H](C(=O)N[C@@H](CC(C)C)C(=O)N[C@@H](CCCCN)C(=O)N[C@H](C(=O)N[C@@H](CC(C)C)C(=O)N[C@H](C(=O)N[C@H](C(=O)NCC(=O)N[C@@H](CC(C)C)C(=O)N1CCC[C@H]1C(=O)N[C@@H](C)C(=O)N[C@@H](CC(C)C)C(=O)N[C@H](C(=O)N[C@@H](CO)C(=O)N[C@@H](Cc1c[nH]c2ccccc12)C(=O)N[C@H](C(=O)N[C@@H](CCCCN)C(=O)N[C@@H](CCCNC(=N)N)C(=O)N[C@@H](CCCCN)C(=O)N[C@@H](CCCNC(=N)N)C(=O)N[C@@H](CCC(N)=O)C(=O)N[C@@H](CCC(N)=O)C(N)=O)[C@@H](C)CC)[C@@H](C)CC)[C@@H](C)O)[C@@H](C)O)C(C)C)C(C)C` [MELITTIN]: the MIC in the test with Escherichia coli was determined as 16 µg/mL (≈ 5.62 µM); in the test on Pseudomonas aeruginosa [1], 32 µg/mL (≈ 11.2 µM); in [2], 32 µg/mL (≈ 11.2 µM); in the test with Staphylococcus aureus [3] it was 16 µg/mL (≈ 5.62 µM); with Staphylococcus aureus [4], 16 µg/mL (≈ 5.62 µM); in the test with Staphylococcus aureus [5] it was 16 µg/mL (≈ 5.62 µM). For the same compound, the MIC in the test on Staphylococcus aureus [6] came out at 16 µg/mL (≈ 5.62 µM); in the test with Pseudomonas aeruginosa [7], 32 µg/mL (≈ 11.2 µM); with Pseudomonas aeruginosa [8], 32 µg/mL (≈ 11.2 µM).
